Test results reported in patent US6177078A, “Monoclonal antibody antagonists to IL-3” (Medvet Science Pty Limited, priority 1995, dated 2001).

Legend:
TF-1 cells = assay: IL-3-mediated TF-1 cell proliferation assay; assay type: cell-based; details: dose-response of IL-3
Procedure: Inhibition of IL-3-mediated TF-1 cell proliferation assay. TF-1 cells were starved of GM-CSF for 24 to 48 hours before setting up proliferation assays. Briefly, 1×10^4 cells were incubated in wells with 0.3 ng/ml of IL-3 in the presence of a range of concentrations of MoAbs (0.00064-64 nM) for 48 hours at 37° C. Wells were pulsed with 0.5 μCi/well ^3 H-thymidine for 4 hours and then harvested onto a glass filter and radioactivities determined by liquid scintillation. The results were expressed as disintegrations per minute (DPM).

IL-3R α and β chains = target: T1, IL-3R α and β chains (Homo sapiens, UniProt P26951); assay: Competition for 125I-7G3 binding to COS cells expressing IL-3R α and β chains by IL-3 or GM-CSF; details: COS cells transfected with IL-3Rα and β chain, preincubated, 1 nM 125I-7G3
T1 construct: expressed in transfected cells; host or cells: COS (monkey fibroblast) cells, transient co-transfection
T1 sequence (P26951 19-378): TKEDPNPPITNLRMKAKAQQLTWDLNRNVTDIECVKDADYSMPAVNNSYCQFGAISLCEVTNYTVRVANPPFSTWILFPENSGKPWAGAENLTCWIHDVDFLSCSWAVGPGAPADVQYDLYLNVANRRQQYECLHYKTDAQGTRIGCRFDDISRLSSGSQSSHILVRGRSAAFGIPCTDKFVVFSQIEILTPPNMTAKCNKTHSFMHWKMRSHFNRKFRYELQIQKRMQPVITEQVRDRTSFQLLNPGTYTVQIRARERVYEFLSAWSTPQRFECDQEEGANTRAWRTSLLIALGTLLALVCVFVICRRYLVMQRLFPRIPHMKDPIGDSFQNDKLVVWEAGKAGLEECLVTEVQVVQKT
Procedure: (§1) The binding curve was analysed by Scatchard transformation.^31 In competition binding experiments F6 cells or COS cells co-expressing IL-3R α and β chains were preincubated for 2 hours at 4° C. with a range of concentrations of IL-3 or GM-CSF before adding 1 nM of ^125 I-7G3 for a further 2 hours.

IL-3Rα chain = target: T2, IL-3Rα chain (Homo sapiens, UniProt P26951); assay: Competition for 125I-7G3 binding to F6 cells by IL-3 or GM-CSF; details: F6 cells expressing IL-3Rα chain alone, preincubated, 1 nM 125I-7G3
T2 construct: expressed in transfected cells
T2 sequence (P26951 19-378): T1 sequence (P26951 19-378)
Procedure: as §1

B1: IL-3: Recombinant human IL-3 produced in E. coli (protein, UniProt P08700 20-152, looked up)
Interleukin-3: APMTQTTPLKTSWVNCSNMIDEIITHLKQPPLPLLDFNNLNGEDQDILMENNLRRPNLEAFNRAVKSLQNASAIESILKNLLPCLPLATAAPTRHPIHIKDGDWNEFRRKLTFYLKTLENAQAQQTTLSLAIF
**Q.** Which results are given for B1?
**A.** concentration stimulating half-maximal proliferation of TF-1 cells (TF-1 cells): approximately 0.3 ng/ml; inhibition of 125I-7G3 binding to the IL-3R (IL-3R α and β chains): inhibited; inhibition of 125I-7G3 binding to the IL-3R (IL-3Rα chain): inhibited
